Assay: Thermal stability of RDV under annealing at 80° C. (RDV assay by HPLC)
Assay type: physicochemical
Settings: annealing 80° C., 30 min, triplicate

**Q.** With `CCC(CC)COC(=O)C(C)NP(=O)(OCC1OC(C#N)(c2ccc3c(N)ncnn23)C(O)C1O)Oc1ccccc1.O=C(O)c1ccccc1O` (centres unmarked) [RDV−SA, cocrystal of remdesivir and salicylic acid] as the compound, how does the “% Assay of RDV after exposed to thermal annealing” value (listed as RDV-SA_LAG) read?
**A.** 98.91 ± 1.25%

**Q.** What about the “% Assay of RDV after exposed to thermal annealing” value (listed as RDV−SA cocrystal) of the same compound?
**A.** 98.91±1.25%

— patent US20240307427A1, “REMDESIVIR COCRYSTAL, COMPOSITIONS AND METHODS THEREOF” (priority 2023, published 2024)
